Assay results published in US20230201364A1.

How the values were obtained:
Biotin hu TNFa (human) = Biotin hu TNFa (human) (UniProt P01375); assay: ELISA analogous to FIG. 3A: antibody coated, biotinylated human TNFa titrated (x axis Biotin hu TNFa, nM), OD 450nm
[1] = target: recombinant biotinylated human Fc gamma receptor I (FcγRI/CD64) (human) (UniProt P12314); assay: as drawn: OD against the concentration of the receptor ([FcRI]nM), rising curves, panel 'FcRI - anti TNFa'; the text speaks of an AlphaLISA signal and antibody dosage
[2] = target: recombinant biotinylated human neonatal Fc receptor (FcRn) (human) (UniProt P55899); assay: AlphaLISA competition (analogous to FIG. 5A): test antibody titrated against biotinylated human FcRn; competitor: human IgG on acceptor beads; y axis AlphaLISA FcRn-IgG binding, 0-120

EC50 (read off the curve) (Biotin hu TNFa (human)) [nM] | EC50 (read off the curve) [1] [nM] | IC50 (read off the curve) [2] [nM] | Substance
0.07 | 0.05 | – | CMP-089 (antibody; other documents disagree on this pair)
– | – | 20 | CMP-090 (antibody)
– | – | 8 | CMP-091 (biosimilar Adalimumab) (antibody)
0.08 | 0.05 | – | CMP-091 (biosimilar Adalimumab) (antibody; other documents disagree on this pair)
